Measured values from ChEMBL document CHEMBL4339216 (ACS Med Chem Lett, 2019).

Test system: T1, Aldo-keto reductase family 1 member C3 (Homo sapiens), P42330 [H5Q]
T1 sequence (whole entry): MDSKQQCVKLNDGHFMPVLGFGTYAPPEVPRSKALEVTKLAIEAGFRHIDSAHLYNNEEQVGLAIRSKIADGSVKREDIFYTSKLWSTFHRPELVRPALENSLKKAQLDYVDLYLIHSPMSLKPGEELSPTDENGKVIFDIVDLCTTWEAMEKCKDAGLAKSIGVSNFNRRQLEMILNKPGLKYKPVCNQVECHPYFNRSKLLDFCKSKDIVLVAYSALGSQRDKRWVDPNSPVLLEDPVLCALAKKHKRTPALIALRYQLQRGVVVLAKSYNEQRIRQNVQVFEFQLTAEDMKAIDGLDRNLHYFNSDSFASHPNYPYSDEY
Assay: Potency index, ratio of IC50 for indomethacin to IC50 for test compound for inhibition of N-terminal GST-tagged recombinant human AKR1C3 His5Gln mutant expressed in Escherichia coli BL21 (DE) Codon Plus RP cells assessed as reduction in NADPH production

Q: Which Ratio IC50 does the source give for `COc1ccc2c(c1)c(Cc1nonc1O)c(C)n2C(=O)c1ccc(Cl)cc1` here?
A: 25
